Laboratory results taken from PMC13657631, “Product-stabilized filamentation by human glutamine synthetase allosterically tunes metabolic activity” (2026).

The chains behind the UniProt entries cited, without tags or fusion partners. Residues count along the entry.
UniProt P15104, 2-373 limits assumed: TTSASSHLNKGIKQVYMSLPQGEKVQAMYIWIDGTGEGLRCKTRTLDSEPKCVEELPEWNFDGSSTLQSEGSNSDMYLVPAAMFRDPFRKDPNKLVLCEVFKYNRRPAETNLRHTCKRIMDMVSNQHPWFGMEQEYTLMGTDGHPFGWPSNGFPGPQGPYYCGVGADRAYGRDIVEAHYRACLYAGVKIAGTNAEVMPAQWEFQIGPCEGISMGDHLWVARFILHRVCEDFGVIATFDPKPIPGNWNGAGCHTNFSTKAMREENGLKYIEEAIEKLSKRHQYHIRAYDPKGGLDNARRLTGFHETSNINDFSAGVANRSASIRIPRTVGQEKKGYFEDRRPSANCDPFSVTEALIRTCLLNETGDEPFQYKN
UniProt P15104, 2-373 R298A limits assumed: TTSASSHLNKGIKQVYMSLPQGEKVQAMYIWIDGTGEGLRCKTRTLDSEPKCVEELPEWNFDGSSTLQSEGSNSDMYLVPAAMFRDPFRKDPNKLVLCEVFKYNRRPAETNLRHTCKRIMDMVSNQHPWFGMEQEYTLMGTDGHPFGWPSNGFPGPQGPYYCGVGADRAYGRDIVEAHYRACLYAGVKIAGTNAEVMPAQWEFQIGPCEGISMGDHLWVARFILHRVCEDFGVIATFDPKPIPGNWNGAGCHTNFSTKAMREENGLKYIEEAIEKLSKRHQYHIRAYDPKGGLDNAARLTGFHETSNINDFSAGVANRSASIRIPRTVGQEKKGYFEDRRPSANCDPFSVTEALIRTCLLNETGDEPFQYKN
UniProt P15104, 2-373 D239A limits assumed: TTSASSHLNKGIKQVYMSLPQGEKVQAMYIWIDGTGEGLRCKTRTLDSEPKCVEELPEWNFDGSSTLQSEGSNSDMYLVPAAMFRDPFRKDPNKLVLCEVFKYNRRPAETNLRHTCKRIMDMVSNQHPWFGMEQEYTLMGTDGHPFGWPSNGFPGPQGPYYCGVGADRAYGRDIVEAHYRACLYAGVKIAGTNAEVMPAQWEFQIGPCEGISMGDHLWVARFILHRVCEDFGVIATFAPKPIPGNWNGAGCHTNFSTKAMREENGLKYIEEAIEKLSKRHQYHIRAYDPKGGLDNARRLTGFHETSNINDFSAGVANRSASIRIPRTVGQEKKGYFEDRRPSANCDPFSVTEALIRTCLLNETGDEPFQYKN
UniProt P15104, 2-373 C53A limits assumed: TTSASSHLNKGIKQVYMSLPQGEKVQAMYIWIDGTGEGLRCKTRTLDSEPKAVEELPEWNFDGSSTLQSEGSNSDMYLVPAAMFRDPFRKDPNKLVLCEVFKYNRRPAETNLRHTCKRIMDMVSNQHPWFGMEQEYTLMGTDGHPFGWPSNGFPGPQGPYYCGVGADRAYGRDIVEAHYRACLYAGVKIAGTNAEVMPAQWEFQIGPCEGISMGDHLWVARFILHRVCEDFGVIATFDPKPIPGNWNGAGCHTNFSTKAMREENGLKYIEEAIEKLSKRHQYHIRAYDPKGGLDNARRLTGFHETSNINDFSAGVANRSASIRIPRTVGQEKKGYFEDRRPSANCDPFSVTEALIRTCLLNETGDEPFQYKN
UniProt P15104, 2-373 K52A limits assumed: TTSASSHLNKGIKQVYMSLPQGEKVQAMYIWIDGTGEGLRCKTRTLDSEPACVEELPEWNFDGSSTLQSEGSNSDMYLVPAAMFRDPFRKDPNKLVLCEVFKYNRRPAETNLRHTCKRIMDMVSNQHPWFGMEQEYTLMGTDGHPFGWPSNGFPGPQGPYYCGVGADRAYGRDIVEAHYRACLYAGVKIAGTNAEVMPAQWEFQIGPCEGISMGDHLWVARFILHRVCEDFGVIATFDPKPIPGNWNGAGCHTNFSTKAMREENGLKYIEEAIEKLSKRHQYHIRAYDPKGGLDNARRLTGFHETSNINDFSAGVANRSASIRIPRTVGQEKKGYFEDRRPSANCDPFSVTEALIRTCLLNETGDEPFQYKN
UniProt P15104, 2-373 E305A limits assumed: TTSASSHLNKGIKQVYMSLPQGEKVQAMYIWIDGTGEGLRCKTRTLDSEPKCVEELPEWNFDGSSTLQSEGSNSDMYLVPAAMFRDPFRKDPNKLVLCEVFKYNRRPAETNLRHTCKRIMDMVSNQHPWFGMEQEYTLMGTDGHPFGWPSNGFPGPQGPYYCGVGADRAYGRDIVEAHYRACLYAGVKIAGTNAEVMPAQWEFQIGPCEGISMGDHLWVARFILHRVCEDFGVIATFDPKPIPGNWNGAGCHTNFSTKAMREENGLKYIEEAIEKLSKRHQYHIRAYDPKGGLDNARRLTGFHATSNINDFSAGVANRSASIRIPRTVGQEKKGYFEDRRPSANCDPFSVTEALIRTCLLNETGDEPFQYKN
UniProt P15104, 2-373 H304A limits assumed: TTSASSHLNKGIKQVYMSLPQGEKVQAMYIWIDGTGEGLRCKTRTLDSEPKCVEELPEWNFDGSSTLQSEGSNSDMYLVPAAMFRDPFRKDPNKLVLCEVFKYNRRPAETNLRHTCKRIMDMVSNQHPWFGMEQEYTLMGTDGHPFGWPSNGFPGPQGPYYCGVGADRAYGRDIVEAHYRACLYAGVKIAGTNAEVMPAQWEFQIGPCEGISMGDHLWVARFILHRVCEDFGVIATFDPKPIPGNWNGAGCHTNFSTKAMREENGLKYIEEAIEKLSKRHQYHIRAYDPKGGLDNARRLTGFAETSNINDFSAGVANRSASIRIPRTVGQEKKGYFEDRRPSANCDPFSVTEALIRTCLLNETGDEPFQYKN
UniProt P15104, 2-373 I309A limits assumed: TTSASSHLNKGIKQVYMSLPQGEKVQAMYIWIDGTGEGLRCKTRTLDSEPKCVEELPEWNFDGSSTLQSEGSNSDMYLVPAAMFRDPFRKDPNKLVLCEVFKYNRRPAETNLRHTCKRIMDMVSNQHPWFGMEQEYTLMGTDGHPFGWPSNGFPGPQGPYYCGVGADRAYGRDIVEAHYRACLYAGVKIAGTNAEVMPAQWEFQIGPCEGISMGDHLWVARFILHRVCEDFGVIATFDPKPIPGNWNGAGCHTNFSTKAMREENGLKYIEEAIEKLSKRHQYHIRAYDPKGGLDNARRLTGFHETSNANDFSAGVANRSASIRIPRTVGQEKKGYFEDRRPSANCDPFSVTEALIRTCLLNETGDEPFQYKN

Legend:
[1] = molecular target: T1, scarless human glutamine synthetase (GS) (Homo sapiens, UniProt P15104); assay: cryo-EM structure of turnover filament; details: allosteric; filament interface site (K52, C53, E55), not the active site; formed as product under turnover
[2] = molecular target: scarless human glutamine synthetase (GS) (Homo sapiens, UniProt P15104, C53A, form not given); assay: NADH-coupled ATPase assay, global progress-curve fit (KinTek Explorer); details: read-out: KM, ammonia; no added glutamine; 0.1 mg/mL enzyme, saturating glutamate and ATP, room temperature
[3] = molecular target: scarless human glutamine synthetase (GS) (Homo sapiens, UniProt P15104, K52A, form not given); assay: as above; details: read-out: KM, ammonia; no added glutamine; 0.1 mg/mL enzyme, saturating glutamate and ATP, room temperature
[4] = molecular target: scarless human glutamine synthetase (GS) (Homo sapiens, UniProt P15104, E305A, form not given); assay: NADH-coupled ATPase assay (pyruvate kinase / lactate dehydrogenase); details: read-out: KM, ammonia; saturating glutamate and ATP, 10 mM MgCl2
[5] = molecular target: scarless human glutamine synthetase (GS) (Homo sapiens, UniProt P15104, D239A, form not given); assay: as above
[6] = molecular target: T2, scarless human glutamine synthetase (GS) (Homo sapiens, UniProt P15104, R298A, form not given); assay: as above
[7] = molecular target: T2, scarless human glutamine synthetase (GS); assay: cryo-EM structure of R298A turnover decamer; details: active site; ADP with Mg(II), turnover conditions
[8] = molecular target: T1, scarless human glutamine synthetase (GS); assay: cryo-EM structure of turnover decamer; details: active site; ADP with Mg(II), turnover conditions
[9] = molecular target: scarless human glutamine synthetase (GS) (Homo sapiens, UniProt P15104, H304A, form not given); assay: NADH-coupled ATPase assay (pyruvate kinase / lactate dehydrogenase); details: read-out: KM, glutamate; saturating ATP and ammonium, 10 mM MgCl2, pH 7.5-7.6
[10] = molecular target: T1, scarless human glutamine synthetase (GS); assay: as above; details: read-out: KM, glutamate; saturating ATP and ammonium, 10 mM MgCl2, pH 7.5-7.6
[11] = molecular target: scarless human glutamine synthetase (GS) (Homo sapiens, UniProt P15104, I309A, form not given); assay: as above; details: read-out: KM, glutamate; saturating ATP and ammonium, 10 mM MgCl2, pH 7.5-7.6
His6-tagged GS = His6-tagged GS (Homo sapiens, UniProt P15104); assay: as above; details: saturating ATP and ammonium; tagged enzyme with decoupled ATP hydrolysis
[12] = read-out: KM, ammonia, saturating glutamate and ATP, 10 mM MgCl2
[13] = read-out: KM, glutamate, saturating ATP and ammonium, 10 mM MgCl2, pH 7.5-7.6

## NC(=O)CC[C@H](N)C(=O)O
[1]
  cryo-EM structure of turnover filament: glutamine modeled which forms hydrogen bonds with K52, C53, and E55

## N
[2]
  Km: 88 µM
[3]
  Km: 110 µM
[4]
  Km: 559 µM
[5]; [12]
  Km: 114 µM
[6]; [12]
  Km: 113 µM

## Nc1ncnc2c1ncn2[C@@H]1O[C@H](COP(=O)(O)OP(=O)(O)O)[C@@H](O)[C@H]1O
[7]
  cryo-EM structure of R298A turnover decamer: Active site ADP and Mg(II) density (sharpened) depiction
[8]
  cryo-EM structure of turnover decamer: Active site ADP and Mg(II) density (sharpened) depiction

## N[C@@H](CCC(=O)O)C(=O)O
[9]
  Km: 11000 µM
[5]; [13]
  Km: 47000 µM
[10]
  Km: 1600 µM
[11]
  Km: 21000 µM
His6-tagged GS
  KM,glutamate: KMglutamate is noted to be threefold higher for His6-tagged GS
[6]; [13]
  Km: 38000 µM

Like-named read-outs stand apart in the source and are kept apart here.
